Measured values reported in ChEMBL document CHEMBL4270627, “Synthesis and SAR of 4,5-dihydro-1H-pyrazolo[4,3-h]quinazoline derivatives as potent and selective CDK4/6 inhibitors” (Eur J Med Chem, 2018).

Tests used:
Homo sapiens [1] = species on record: Homo sapiens; experiment: Selectivity ratio of IC50 for CDK2/Cyclin A2 (unknown origin) to IC50 for CDK6/Cyclin D3 (unknown origin)
Homo sapiens [2] = species on record: Homo sapiens; experiment: Selectivity ratio of IC50 for CDK2/Cyclin A2 (unknown origin) to IC50 for CDK4/Cyclin D3 (unknown origin)

Row | Compound | Ratio IC50 (Homo sapiens [1]) | Ratio IC50 (Homo sapiens [2])
1 | Cn1nc(C(N)=O)c2c1-c1nc(Nc3ccc(N4CCNCC4)cc3)ncc1CC2 | 0.8 | 1
2 | CNC(=O)c1nn(C)c2c1C(C)(C)Cc1cnc(Nc3ccccc3)nc1-2 | 0.03 | 0.56
3 | Cn1nc(C(N)=O)c2c1-c1nc(Nc3ccc(N4CCOCC4)cn3)ncc1CC2 | 25.2 | 33.3
4 | CN1CCN(c2ccc(Nc3ncc4c(n3)-c3c(c(C(N)=O)nn3C)CC4)cc2)CC1 | 0.1 | 0.33
5 | CN1CCN(c2ccc(Nc3ncc4c(n3)-c3c(c(C(N)=O)nn3C)CC4)nc2)CC1 | 28.1 | 70
6 | CN(C)c1ccc(Nc2ncc3c(n2)-c2c(c(C(N)=O)nn2C)CC3)nc1 | 2.5 | 2
7 | Cn1nc(C(N)=O)c2c1-c1nc(Nc3ccc(N4CCNCC4)cn3)ncc1CC2 | 23.6 | 28.3
